Measured values: patent publication US20210396761A1 (AICURIS, published 2021)

Molecular target: T1, His-tagged pUL50 (HCMV groove protein, soluble recombinant) (human cytomegalovirus (HCMV), UniProt P16791 1-175)
T1 construct: also called His-tagged groove protein
T1 sequence: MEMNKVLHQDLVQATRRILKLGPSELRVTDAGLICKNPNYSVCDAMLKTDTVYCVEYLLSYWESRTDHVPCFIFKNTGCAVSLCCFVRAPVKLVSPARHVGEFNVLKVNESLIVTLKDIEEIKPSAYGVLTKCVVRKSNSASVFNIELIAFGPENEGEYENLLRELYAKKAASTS
Test: competitive ELISA, inhibition of His-tagged pUL50 binding to coated pUL53

B1: BFLF2 (EBV hook protein, soluble recombinant) (other)
chain: DRSHFSLRDFFRGISANFELGKDFLREMNTPIHVSEAVFLPLSLCTLSPGRCLRLSPFGHSLTLGSHCEICINRSQVHVPQEFSSTQLSFFNNVHKIIPNKTFYVSLLSSSPSAVKAGLSQPSLLYAYLVTGHFCGTICPIFSTNGKGRLIMHLLLQGTSLHIPETCLKLLCENIGPTYELAVDLVGDAFCIKVSPRDTVYEKAVNVDEDAIYEAIKDLECGDELRLQIINYTQLILENKQ
**Q.** B1 was tested. Which IC50 did it give?
**A.** 198 nM
